Assay results from patent US9617282B2, “Macrocyclic compounds as IRAK4 inhibitors for the treatment of inflammatory diseases” (BIOGEN MA INC., priority 2013, dated 2017).

Amino acid sequences for entries named in this document (tags omitted).
UniProt Q9NWZ3, whole entry, species assumed: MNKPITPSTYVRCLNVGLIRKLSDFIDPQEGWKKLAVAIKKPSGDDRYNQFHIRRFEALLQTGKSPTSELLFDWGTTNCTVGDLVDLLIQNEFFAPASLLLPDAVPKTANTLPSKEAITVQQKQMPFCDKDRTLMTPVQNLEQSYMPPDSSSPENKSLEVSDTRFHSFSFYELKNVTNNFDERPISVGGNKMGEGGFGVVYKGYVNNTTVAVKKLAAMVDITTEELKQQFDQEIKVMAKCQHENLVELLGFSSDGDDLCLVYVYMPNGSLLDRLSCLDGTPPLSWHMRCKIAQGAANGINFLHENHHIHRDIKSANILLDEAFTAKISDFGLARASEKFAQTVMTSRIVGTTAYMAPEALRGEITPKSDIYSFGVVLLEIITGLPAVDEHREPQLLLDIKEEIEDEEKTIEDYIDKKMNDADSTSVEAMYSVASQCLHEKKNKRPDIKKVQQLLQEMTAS

Key:
IRAK4 = IRAK4 (Homo sapiens (Human), UniProt Q9NWZ3); assay: IRAK-4 biochemical kinase assay, AlphaScreen format
Protocol: The biochemical assay is in a AlphaScreen format. The kinase reaction is based on the IRAK-4 phosphorylation of a biotin labeled peptide. The phosphopeptide is incubated with anti-phosphothreonine antibody as well as streptavidin- and protein A-coated beads. Binding of the protein-A coated beads to the antibody and the streptavidin beads to the peptide, leads to an energy transfer from one bead to the other, ultimately producing a luminescent/fluorescent signal.

A549 cells = assay: Cell-based assay, IL-6 ELISA quantification in IL-1 beta stimulated A549 cells; conditions: Homo sapiens, A549, read-out: Celluar Data EC50 (uM)
Protocol: The cell-based assays is based on IL-6 ELISA quantification. Briefly, A549 cells are cultured in DMEM with 10% FBS medium. When cells reach 80% confluence they are trypsin treated and seeded in 96-well plate at 2.5×10^4 cells/well. Then, 20 ul of compound serial dilutions (starting at 10 uM, 10 points) are added to the cell plate; incubate for 1 hour at 37 C and stimulated with 2 ng/ml human IL-1 beta 37 C overnight. The next day 100 ul of cell supernatant per well are analyzed on a Human IL-6 Quantikine ELISA kit from R&D Systems.

CN(C)C(=O)c1ccc2c(c1)NC(=O)c1csc(n1)-c1ccnc(c1)NCCCCCO2 [Compound 20]
IC50 (IRAK4): < 100 nM

O=C1Nc2c[nH]nc2C(=O)NCCOCCOc2cc(ccn2)-c2nc1cs2 [Example 107]
IC50 (IRAK4): < 100 nM
EC50 (A549 cells): > 10 µM
